{"source": "patent US20260240999A1", "about": "“METHODS FOR EX VIVO ENRICHMENT AND EXPANSION OF TUMOR REACTIVE T CELLS AND RELATED COMPOSITIONS THEREOF” (H. LEE MOFFITT CANCER CENTER AND RESEARCH INSTITUTE, INC., priority 2022, published 2026)", "tested_on": "tumor-derived cells from CRC or melanoma tumors", "assay": "Expansion of tumor-derived cells at low or high IL-2 concentration", "format": "cell-based, human", "details": "300 IU/mL (low) vs 6000 IU/mL (high) recombinant IL-2; CRC SCS and melanoma fragment cultures; 14-31 days", "description": "Single cell suspensions (SCSs) were obtained by homogenization and enzyme digestion of primary tumors from donor patients with CRC or melanoma. As described in Example 1, cells were cultured in a conventional 6-well plate or a gas-permeable 24-well culture plate. Where possible, multiple conditions from each donor were initiated and averaged (error bars represent±standard deviation). For 6-well plates, cells were seeded between 250,000 and 1,000,000 cells/mL and for gas-permeable 24-well plates cells were seeded between 5,000 and 750,000 cells/mL. In both cases, the cells were seeded in either RPMI containing 5% human serum or serum free OpTmizer medium with recombinant IL-2 supplemented at a concentration of IL-2 of 300 IU/mL or 6000 IU/mL. The media also contained gentamicin at 10 μg/ml and a final concentration of 2.0 mM of a L-alanyl-L-glutamine dipeptide form of glutamine (GlutaMAX Supplement; Thermofisher). The cells were incubated for up to 31 days, typically 14 to 21 days, wherein 50% of cellular media was exchanged every other day beginning on the 5th day of culture. […]\nFor all conditions, cell counts were performed approximately every other day using the NC-200 Automated Cell Counter (Chemometec) and samples were collected for fluorescence-activated cell sorting (FACS). […]", "note": "“Also recorded” adds a separate entry of the source.", "data": [{"substance": "IL-2: recombinant cytokine that supports T cell recovery and proliferation", "values": [{"measurement": "cellular expansion (total cell numbers and fold expansion)", "result": "did not result in an appreciably distinct expansion response when compared with a lower dose; also recorded: not observed to be necessary for cellular expansion"}]}]}
